An excerpt weighted towards active compounds, which were near 1.8% of everything screened.
Cneo AK release: Cryptococcus neoformans cell lysis inducers, primary screen, AK release luminescence, single concentration | 0.2% of 360,000 active | lysis activity, % at 15 µM | C. neoformans lysis, adenylate kinase release luminescence, 4 h; normalised: neutral wells 0, clomiphene wells 100 | AID 651654, 2012;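 active = mean lysis activity across replicates of at least 80%, whatever share of replicates individually reach that level; inactive = mean lysis activity below 80%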
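Material – Cryptococcus neoformans yeast cells · Quantity – 5 × 10^6 yeast cells/mL · Buffer or medium – YPD medium · Compound – single dose · Timing – 4 h static compound exposure, 37 °C, read 1 h post-reagent · Signal – adenylate kinase release luminescence · Read-out basis – lysis from increased AK signal · Benchmarks – Clomiphene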
Yeast UUG start: alters start codon recognition fidelity in yeast; AID 602363; activity score, % at 18.7 µM; 350,000 tested, 0.13% active; S. cerevisiae UUG-firefly luciferase reporter, luminescence/redox ratio;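 active means replicate mean at a twofold rise or more, about +100% in these data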;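 further: firefly luciferase made from a UUG start codon reports start codon fidelity; reporter light over untreated wells divided by growth signal over untreated wells; some hits fall short of that in this replicate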
E-sel inducer: E-selectin induction in HUVECs, primary screen, imaging, HUVEC, immunofluorescence imaging, single point. normalized: neutral wells 0, TNF-alpha wells 100. activation, % at 7.58 µM. 0.37% of 260,000 active;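 active = mean E-selectin-positive cell signal at least 10% of the positive control, reached in at least 60% of replicates, without over 20% cell loss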
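Read-out: % PE-positive cells | Test system: HUVEC | Doses: One compound dose added by pin transfer | Buffer or medium: EGM-2 over gelatin coat | Signal: Immunofluorescence imaging | Benchmarks: TNF-alpha, DMSO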
DENV2 CPE: inhibitors of DENV2 cytopathic effect, primary screen, cell-based, plate reader, single concentration | DENV2-infected cells, cytopathic effect rescue | CPE inhibition, % at 9.99 µM | 1.7% of 350,000 active | AID 651640, 2012; in the data active = CPE inhibition above about 20%, passing the limit was not always enough; tested in BHK-21 cells;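 also: 0% = median of neutral control wells and 100% = median of positive control wells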
Starred values were filed as active, the others as inactive; nt = no result given.

Codes – A = Cneo AK release; B = Yeast UUG start; C = E-sel inducer; D = DENV2 CPE
CC(Sc1nc2cc(Cl)ccc2s1)C(=O)Nc1cccc(S(=O)(=O)N2CCOCC2)c1 (stereo not given)
  A: nt; B: nt; C: nt; D: 33*
C[C@@H]1CCCCO[C@@H](CN(C)C(=O)c2ccccc2)[C@H](C)CN([C@@H](C)CO)C(=O)c2cc(NS(=O)(=O)c3ccccc3)ccc2O1
  A: 4; B: 5; C: nt; D: 2
Cc1cc(-c2cc(NC(=O)Cc3c(C)[nH]c4ccccc34)ccc2N(C)c2cccnc2)ccc1F
  A: nt; B: nt; C: 1; D: 5
Cc1[nH]c2ccccc2c1CC(=O)Nc1ccc(N(C)c2cccnc2)c(-c2cccc(Cl)c2)c1
  A: nt; B: nt; C: 0; D: 43*
Cc1cccnc1NC(=O)c1ccc(S(=O)(=O)N2CCCC2)cc1
  A: -1; B: -21; C: nt; D: 65*
O=C(Nc1cccc(F)c1)c1ccc(S(=O)(=O)N2CCCCC2)cc1
  A: 1; B: -12; C: -1; D: 114*
COc1ccc(/C=C/c2nnc(NC(=O)C(C)(C)C)s2)cc1
  A: nt; B: nt; C: nt; D: 70*
O=S1(=O)N[C@@H](Cc2ccccc2)COc2cc(N3CCOCC3)ccc21
  A: nt; B: nt; C: 0; D: 54*
CN1CCN(c2ccc3c(c2)OC[C@@H](Cc2ccccc2)NS3(=O)=O)CC1
  A: nt; B: nt; C: 1; D: -6
CCCNC(=O)N1C[C@H](O)COC[C@@H]2O[C@@H](CC(=O)NCc3ccncn3)CC[C@H]21
  A: 6; B: nt; C: 0; D: 1
COc1ccccc1C(=O)Nc1ccc2c(c1)C(=O)N(C)C[C@H](OC)[C@H](C)CN(C)[C@@H](C)CO2
  A: -5; B: nt; C: 0; D: -8
COc1ccccc1C(=O)Nc1ccc2c(c1)C(=O)N(C)C[C@@H](OC)[C@H](C)CN(C)[C@@H](C)CO2
  A: 112*; B: nt; C: 0; D: 47*
CO[C@@H]1CN(C)C(=O)c2cc(NC(=O)C3CCOCC3)ccc2OC[C@@H](C)N(C)C[C@@H]1C
  A: -1; B: -12; C: 0; D: 36*
CC(C)(C)[S@@](=O)N1Cc2cc(C(=O)NCc3ccccc3F)nc(-c3cccc(-c4ccncc4)c3)c2[C@H]1CCO
  A: -4; B: nt; C: 0; D: 5
C[C@H]1CN([C@@H](C)CO)C(=O)Cc2cc(NC(=O)CCCCCC(=O)Nc3ccccc3N)ccc2O[C@@H]1CN(C)Cc1ccccc1
  A: 2; B: 3; C: -1; D: -2
CC(=O)N1[C@H](CO)[C@H](c2ccc(-c3ccc(C#N)cc3)cc2)C12CN(C(=O)C1CC1)C2
  A: nt; B: nt; C: 0; D: 62*
CC(=O)N1CC2(C1)[C@H](c1ccc(-c3ccc(C#N)cc3)cc1)[C@@H](CO)N2C(=O)C1CC1
  A: nt; B: nt; C: 0; D: 84*
CC(=O)N1CC2(C1)[C@H](c1ccc(-c3ccc(C#N)cc3)cc1)[C@@H](CO)N2C(C)=O
  A: nt; B: nt; C: 0; D: 6
CC(=O)N1[C@@H](CO)[C@@H](c2ccc(-c3ccc(C#N)cc3)cc2)C12CN(C(=O)C1CC1)C2
  A: nt; B: nt; C: 0; D: 8
CN1CCN(CC(O)COc2ccc(S(=O)(=O)N3CCOCC3)cc2)CC1 (stereo not given)
  A: -2; B: -20; C: -1; D: 46*
Cc1noc(C)c1S(=O)(=O)Nc1ccc2c(c1)C(=O)N([C@H](C)CO)C[C@@H](C)[C@H](CN(C)Cc1ccc(C(=O)O)cc1)OCCCC[C@@H](C)O2
  A: -2; B: 8; C: 1; D: 12
Cc1noc(C)c1S(=O)(=O)Nc1ccc2c(c1)C(=O)N([C@H](C)CO)C[C@@H](C)[C@H](CN(C)Cc1ccccc1)OCCCC[C@@H](C)O2
  A: 1; B: 15; C: 0; D: 5
Cc1noc(C)c1S(=O)(=O)Nc1ccc2c(c1)C(=O)N([C@H](C)CO)C[C@H](C)[C@H](CN(C)Cc1ccc(C(=O)O)cc1)OCCCC[C@@H](C)O2
  A: -2; B: -6; C: 0; D: 50*
Cc1noc(C)c1S(=O)(=O)Nc1ccc2c(c1)C(=O)N([C@H](C)CO)C[C@@H](C)[C@H](CN(C)Cc1ccccc1)OCCCC[C@H](C)O2
  A: 101*; B: 40; C: 0; D: nt
Cc1noc(C)c1S(=O)(=O)Nc1ccc2c(c1)C(=O)N([C@@H](C)CO)C[C@H](C)[C@@H](CN(C)Cc1ccncc1)OCCCC[C@@H](C)O2
  A: 0; B: -3; C: 3; D: 22*

Exported with values under each structure: three of the compounds above
Fields: Cneo AK release, Yeast UUG start, E-sel inducer, DENV2 CPE
- COc1ccccc1C(=O)Nc1ccc2c(c1)C(=O)N(C)C[C@H](OC)[C@H](C)CN(C)[C@@H](C)CO2
  -5, nt, 0, -8
- O=C(Nc1cccc(F)c1)c1ccc(S(=O)(=O)N2CCCCC2)cc1
  1, -12, -1, 114*
- C[C@@H]1CCCCO[C@@H](CN(C)C(=O)c2ccccc2)[C@H](C)CN([C@@H](C)CO)C(=O)c2cc(NS(=O)(=O)c3ccccc3)ccc2O1
  4, 5, nt, 2

(list continues)
Codes – A = Cneo AK release; B = Yeast UUG start; C = E-sel inducer; D = DENV2 CPE
COc1ccc(S(=O)(=O)Nc2cccc3c2O[C@@H](CN(C)S(=O)(=O)c2ccc(OC)cc2)[C@H](C)CN([C@@H](C)CO)C3=O)cc1
  A: 0; B: nt; C: nt; D: -10
COCCNC(=O)C1(C)CCN(C(=O)c2cc(C(C)(C)C)nn2C)C1 (stereo not given)
  A: 0; B: -16; C: 0; D: 38*
O=C(C1CCOCC1)N1CC(=O)N2[C@H](C1)[C@@H](c1ccc(-c3ccccc3F)cc1)[C@@H]2CO
  A: nt; B: nt; C: 1; D: 23*
O=C(C1CCOCC1)N1CC(=O)N2[C@H](CO)[C@@H](c3ccc(-c4ccccc4F)cc3)[C@@H]2C1
  A: nt; B: nt; C: 0; D: -4
O=C(C1CCOCC1)N1CC(=O)N2[C@H](C1)[C@H](c1ccc(-c3ccccc3F)cc1)[C@@H]2CO
  A: nt; B: nt; C: 0; D: 21*
O=C(c1cccnc1)N1CC(=O)N2[C@H](C1)[C@@H](c1ccc(-c3ccccc3F)cc1)[C@@H]2CO
  A: nt; B: nt; C: 0; D: 35*
O=C(c1ccncc1)N1CC(=O)N2[C@H](CO)[C@@H](c3ccc(-c4ccccc4F)cc3)[C@H]2C1
  A: nt; B: nt; C: 0; D: 9
O=C(C1CCOCC1)N1CC(=O)N2[C@H](CO)[C@H](c3ccc(-c4ccccc4F)cc3)[C@@H]2C1
  A: nt; B: nt; C: 0; D: 9
CO[C@@H]1CN(C)C(=O)c2ccc(NC(=O)C3CCOCC3)cc2OC[C@H](C)N(Cc2nccs2)C[C@H]1C
  A: -3; B: nt; C: 0; D: 4
CO[C@H]1CN(C)C(=O)c2cc(NC(C)=O)ccc2OC[C@H](C)N(Cc2cncnc2)C[C@@H]1C
  A: 1; B: -4; C: 0; D: 3
O=C(Nc1ccc(F)cc1)N1CC(=O)N2[C@H](CO)[C@H](c3ccc(C#CC4CC4)cc3)[C@@H]2C1
  A: nt; B: nt; C: 0; D: -5
O=C(NC1CCCC1)N1CCCCN2[C@H](C1)[C@H](c1ccc(/C=C/c3ccccc3)cc1)[C@@H]2CO
  A: 11; B: 3; C: -1; D: -24
COC(=O)[C@H](Cc1ccccc1)N1CC2=C[C@@H](C3CC3)n3c(=O)n(C)c(=O)n3[C@H]2[C@@H]1[C@@H](O)Cc1ccccc1
  A: 4; B: -4; C: nt; D: -2
Cc1c(C)c2cc(Cl)c(OCC(=O)NCCCN3CCCC3=O)cc2oc1=O
  A: -2; B: 0; C: nt; D: 44*
Cc1cc(=O)oc2cc(OCC(=O)NCCCN3CCCC3=O)c(Cl)cc12
  A: -2; B: 0; C: nt; D: 0
COc1ccc(/C=C(/NC(=O)c2ccc(OC)c(OC)c2)C(=O)NCCc2c[nH]c3ccccc23)cc1
  A: 0; B: -3; C: nt; D: 20*
C[C@@H]1CN([C@@H](C)CO)C(=O)Cc2cc(NS(=O)(=O)c3ccc(F)cc3)ccc2O[C@@H]1CN(C)Cc1ccc(C(=O)O)cc1
  A: 0; B: -11; C: 0; D: 30*
COc1ccc(CN(C)C[C@@H]2Oc3ccc(NC(=O)Nc4ccc(F)cc4)cc3CC(=O)N([C@@H](C)CO)C[C@@H]2C)cc1
  A: 1; B: 1; C: 62*; D: 3

Assay outcomes (PubChem BioAssay)
